Measurements: patent publication US7241791B2, “Substituted 4-(indazol-3-yl)phenols” (Wyeth, priority 2002, dated 2007)
Where two headings read alike, the source gives them in different places.

The chains behind the UniProt entries cited, without tags or fusion partners.
UniProt P03372, whole entry: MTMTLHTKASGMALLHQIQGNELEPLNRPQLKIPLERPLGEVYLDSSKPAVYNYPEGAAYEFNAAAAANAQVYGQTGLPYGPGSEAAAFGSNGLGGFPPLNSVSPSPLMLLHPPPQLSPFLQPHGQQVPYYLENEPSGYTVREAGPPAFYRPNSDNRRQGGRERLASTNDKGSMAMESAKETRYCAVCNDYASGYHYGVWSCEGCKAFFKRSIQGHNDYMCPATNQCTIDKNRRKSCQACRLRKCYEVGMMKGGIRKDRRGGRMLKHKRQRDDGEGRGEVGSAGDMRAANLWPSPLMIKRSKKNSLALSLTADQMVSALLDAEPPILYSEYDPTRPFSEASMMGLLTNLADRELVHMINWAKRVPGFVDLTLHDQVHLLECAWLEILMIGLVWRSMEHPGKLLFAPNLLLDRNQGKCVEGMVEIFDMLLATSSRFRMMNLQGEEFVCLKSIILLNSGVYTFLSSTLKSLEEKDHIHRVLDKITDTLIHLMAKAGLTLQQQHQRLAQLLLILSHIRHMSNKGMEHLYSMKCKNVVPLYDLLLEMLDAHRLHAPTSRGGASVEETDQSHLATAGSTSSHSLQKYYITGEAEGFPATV

Tests used:
[1] = biological target: T1, human ERα (Homo sapiens, UniProt P03372); experiment: NF-κB luciferase reporter (ER/NF-KB-luc) in Ad5-wt-hERα infected HAECT-1 cells; conditions: for IC50: IL-1β
[2] = biological target: T1, human ERα; experiment: Creatine kinase expression (ER/CK) in Ad5-wt-hERα infected HAECT-1 cells
[3] = ER/NF-KB-luc IC50, Ad5-wt-ER infected HAECT-1 cells

Compound	ER/NF-KB-luc % E2 ([1]; efficacy relative to the maximal inhibition observed with E2)	IC50 ([1]; read-out: ER/NF-KB-luc IC50, Ad5-wt-ER infected HAECT-1 cells)	ER/CK % E2 ([2]; efficacy relative to the maximal stimulation observed with E2)	EC50 ([2]; read-out: ER/CK EC50, Ad5-wt-ER infected HAECT-1 cells)	IC50 [1, 3]
4-(7-fluoro-1-(3,3,3-trifluoropropyl)-1H-indazol-3-yl)phenol [Example 62]	82 % E2	47 nM	30 % E2	253 nM	
CC(C)n1nc(-c2ccc(O)cc2)c2cccc(-c3ccccc3)c21 [Example 236, 4-(1-isopropyl-7-phenyl-1H-indazol-3-yl)phenol]					47 nM
Cc1cc(O)ccc1-c1nn(C(C)C)c2c(-c3ccc(O)c(O)c3)cccc12 [Example 250, 4-[3-(4-hydroxy-2-methylphenyl)-1-isopropyl-1H-indazol-7-yl]-benzene-1,2-diol]					47 nM
